By IC50 is commonly meant the concentration at which inhibition is half-maximal. Low readings indicate greater potency, high ones weaker potency.

The chains behind the UniProt entries cited, without tags or fusion partners. Residues count along the entry.
UniProt P04629, 33-796: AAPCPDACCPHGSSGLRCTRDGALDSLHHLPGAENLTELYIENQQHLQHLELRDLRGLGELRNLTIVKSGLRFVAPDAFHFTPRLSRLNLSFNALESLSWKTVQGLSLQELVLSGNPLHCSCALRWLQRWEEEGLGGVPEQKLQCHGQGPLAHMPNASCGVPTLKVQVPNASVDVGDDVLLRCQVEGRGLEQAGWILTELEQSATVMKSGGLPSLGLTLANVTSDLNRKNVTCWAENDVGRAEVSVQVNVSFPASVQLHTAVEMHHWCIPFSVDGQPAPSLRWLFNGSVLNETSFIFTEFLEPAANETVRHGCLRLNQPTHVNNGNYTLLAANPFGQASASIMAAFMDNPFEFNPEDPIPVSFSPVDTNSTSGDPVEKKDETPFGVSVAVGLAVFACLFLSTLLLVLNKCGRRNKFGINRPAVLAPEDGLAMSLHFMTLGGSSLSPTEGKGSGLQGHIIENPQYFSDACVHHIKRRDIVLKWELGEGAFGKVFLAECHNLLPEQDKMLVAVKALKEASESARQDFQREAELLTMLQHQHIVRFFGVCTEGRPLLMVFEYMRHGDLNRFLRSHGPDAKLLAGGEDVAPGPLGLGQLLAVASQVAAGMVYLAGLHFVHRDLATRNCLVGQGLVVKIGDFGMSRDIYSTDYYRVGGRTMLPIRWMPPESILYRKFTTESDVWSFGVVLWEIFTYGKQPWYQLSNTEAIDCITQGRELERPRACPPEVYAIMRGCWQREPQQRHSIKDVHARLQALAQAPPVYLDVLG

The target in the assay is TrkA (Homo sapiens (Human), UniProt P04629). Kind of assay: TrkA kinase HTRF enzyme inhibition assay. The format is biochemical. As to conditions: TrkA pre-incubated with 200 μM ATP. The method, then: TrkA enzyme was obtained from Invitrogen (as catalog numbers PV3144, PV3616, and PV3617, respectively). Enzyme activity was measured in an HTRF® (homogeneous time resolved fluorescence) assay, which detects enzymatic phosphorylation of a biotinylated synthetic peptide substrate (an LCK peptide analog, biotin-ahx-GAEEEIYAAFFA, from Genemed Synthesis). Phosphorylation is assessed by HTRF® in the presence of an anti-phosphotyrosine antibody conjugated to Eu^3+ cryptate (Cisbio) as donor fluorophore, and streptavidin conjugated to allophycocyanin (ProZyme) as acceptor fluorophore. The HTRF® signal was detected at two different wavelengths (620 nm and 665 nm) which were used to calculate the fluorescence ratio.
TrkA enzyme was titrated to a concentration optimized to ensure accurate measurement of the initial reaction rate. To allow the TrkA enzyme to undergo activation and auto-phosphorylation, a 20 minute pre-incubation with ATP was carried out (at twice the final targeted enzyme and ATP concentration) prior to addition of test compound and the peptide substrate.
TrkA in vitro assays were performed by pre-incubating TrkA (2-10 nM) with ATP (200 μM) for 20 minutes at ambient temperature in 50 mM HEPES pH 7.4, 10 mM MgCl2, 2 mM MnCl2, 100 μM Na3VO4, 1 mM dithiothreitol, 0.01% BSA (bovine serum albumin). Then, to the activated Trk enzyme mixture was added the test compound in 2% dimethyl sulfoxide. After 10 minutes, the peptide substrate (125 nM) was added. After 1 hour, enzyme reactions were terminated by addition of equal reaction volumes of detection/stop reagent (containing 0.2 μg/mL anti-phosphotyrosine monoclonal antibody labeled with europium from Cisbio (catalog#PT66-K), and 4 μg/mL PhycoLink® Streptavidin-Allophycocyanin conjugate from ProZyme (catalog#PJ25S) in 60 mM EDTA in 40 mM HEPES pH 7.4, 480 mM KF, 0.01% Tween® 20 and 0.1% BSA bovine serum albumin) Reaction plates were stored at 4° C. overnight before reading the fluorescence ratio signal on a PerkinElmer EnVision™ fluorescence detector. Individual reaction wells were stopped at time points to obtain reaction rates. The test inhibitor compounds were assayed in duplicate, at half-log serial dilutions over a range of concentrations (e.g. starting at 50 μM or 5 μM as the high compound concentration). The percent Trk enzyme inhibition was calculated from the initial rates of the inhibited reactions relative to the uninhibited control. IC50 values were calculated by fitting the inhibition percent to the concentration of inhibitor [I] in the assay in equation 1 below, to solve for the IC50. Inhibition %=100[I]/([I]+[IC50]) equation 1
On the technique in general: Time-resolved FRET reads energy transfer from a long-lived donor to a nearby acceptor.
In turn, `COc1cc(N2CCNCC2)ccc1NC(=O)c1coc2c1C(=O)NCC2` [Example 6, N-[2-methoxy-4-(piperazin-1-yl)phenyl]-4-oxo-4,5,6,7-tetrahydrofuro[3,2-c]pyridine-3-carboxamide] showed an IC50 of 0.0467 µM.

As to `Cn1cc2cc(NC(=O)c3coc4c3C(=O)C(C)(C)CC4)ccc2n1` [Example 168, 5,5-dimethyl-N-(2-methyl-2H-indazol-5-yl)-4-oxo-4,5,6,7-tetrahydro-1-benzofuran-3-carboxamide], the midpoint of inhibition, the IC50, lay at 0.0059 µM.

Regarding `CN1CCc2occ(C(=O)Nc3ccc4nn(C)cc4c3)c2C1=O` [Example 2, 5-methyl-N-(2-methyl-2H-indazol-5-yl)-4-oxo-4,5,6,7-tetrahydrofuro[3,2-c]pyridine-3-carboxamide], the IC50 is 0.0602 µM.

Take `CCOc1nc(N2CCN(C(C)=O)CC2)ccc1NC(=O)c1coc2c1C(=O)N(CCO)CC2` [Example 9, N-[6-(4-acetylpiperazin-1-yl)-2-ethoxypyridin-3-yl]-5-(2-hydroxyethyl)-4-oxo-4,5,6,7-tetrahydrofuro[3,2-c]pyridine-3-carboxamide]: inhibition was half-maximal at 0.0051 µM (IC50).

For the origin of these results see patent publication US9777020B2, “Furo-3-carboxamide derivatives and methods of use” (AbbVie Inc., priority 2014, dated 2017).
